Patent US20250325676A1, “CAMPTOTHECIN PRODRUG AND PHARMACEUTICAL COMPOSITION THEREOF” (TIANJIN HEMAY ONCOLOGY PHARMACEUTICAL CO., LTD, priority 2022, published 2025)

Columns and labels:
[1] = system: human colon cancer LoVo; conditions: 30 mg/kg i.v. qw × 2; LoVo model, nude mouse
[2] = system: human colon cancer SW620; conditions: 30 mg/kg i.v. qw × 2; SW620 model, nude mouse
[3] = system: human small cell lung cancer NCI-H446; conditions: 20 mg/kg i.v. qw × 2; NCI-H446 model, nude mouse
[4] = system: human pancreatic cancer BxPC-3; experiment: Growth of human pancreatic cancer BxPC-3 in allogeneic transplantation model; type: in vivo, nude mice; conditions: 25 mg/kg i.v. qw × 2; BxPC-3 model, nude mouse
[5] = system: human colon cancer HCT116; experiment: Growth of human colon cancer HCT116 in allogeneic transplantation model; type: in vivo, nude mice; conditions: 10 mg/kg i.v. qw × 2, nude mouse
[6] = system: human gastric cancer NCI-N87; experiment: Growth of human gastric cancer NCI-N87 in allogeneic transplantation model; type: in vivo, nude mice; conditions: 20 mg/kg i.v. qw × 2, nude mouse
Experimental: The tumor volume was measured 2 to 3 times per week. […] The subcutaneous tumors were peeled and weighed.
The calculation formula of the tumor volume: Volume=0.5×long diameter×short diameter×short diameter.

Substance	Final body weight change (%) [2] [%]	Final body weight change (%) [3] [%]	Final body weight change (%) [5] [%]	other results
4-amino-6-((E)-(4′-(6-(4-((2-(((S)-4,11-diethyl-4-hydroxy-3,14-dioxy-3,4,12,14-tetrahydro-1H-pyrano[3′,4′:6,7]indolazo[1,2-b]quinolin-9-yl)oxy)methyl)-5-(((2S,3R,4S,5 S,6S)-3,4,5-trihydroxy-6-(methoxycarbonyl)tetrahydro-2H-pyran-2-yl)oxy)phenoxy)methyl)-1H-1,2,3-triazol-1-yl)hexanamido)-3,3′-dimethyl-[1,1′-biphenyl]-4-yl)diazenyl)-5-hydroxynaphthalene-1,3-disulfonate disodium [Example 21]	6.9	–	–	Final body weight change (%) [1]: −1.6%
(2S,3S,4S,5R,6S)-6-(3-((1-(8-((4′-((E)-(8-amino-1-hydroxy-5,7-disulfonicnaphthalen-2-yl)diazenyl)-[1,1′-biphenyl]-4-yl)amino)-8-oxooctyl)-1H-1,2,3-triazol-4-yl)methoxy)-4-((((S)-4,11-diethyl-4-hydroxy-3,14-dioxo-3,4,12,14-tetrahydro-1H-pyrano[3′,4′: 6,7]indolazino[1,2-b]quinolin-9-yl)oxy)methyl)phenoxy)-3,4,5-trihydroxytetrahydro-2H-pyran-2-carboxylate trisodium [Example 47]	9.7	–	–	–
(2S,3S,4S,5R,6S)-6-(3-((1-(6-((4′-((E)-(8-amino-1-hydroxy-5,7-disulfonicnaphthalen-2-yl)diazenyl)-[1,1′-biphenyl]-4-yl)amino)-6-oxohexyl)-1H-1,2,3-triazol-4-yl)methoxy)-4-((((S)-4,11-diethyl-4-hydroxy-3,14-dioxo-3,4,12,14-tetrahydro-1H-pyrano[3′,4′:6,7]indolazino[1,2-b]quinolin-9-yl)oxy)methyl)phenoxy)-3,4,5-trihydroxytetrahydro-2H-pyran-2-carboxylate trisodium [Example 78]	7.1	–	–	Final body weight change (%) [1]: 3.8%
(2S,3S,4S,5R,6S)-6-(3-((1-(6-((4′-((E)-(8-amino-1-hydroxy-5,7-disulfonicnaphthalen-2-yl)diazenyl)-3,3′-dimethoxy-[1,1′-biphenyl]-4-yl)amino)-6-oxohexyl)-1H-1,2,3-triazol-4-yl)methoxy)-4-(((S)-4,11-diethyl-4-hydroxy-3,14-dioxy-3,4,12,14-tetrahydro-1H-pyrano[3′,4′:6,7]indolizino[1,7]quinolin-9-yl)oxy)methyl)phenoxy)-3,4,5-trihydroxytetrahydro-2H-pyran-2-carboxylate trisodium [Example 69]	5.8	–	–	–
(2S,3S,4S,5R,6S)-6-(3-((1-(6-((4′-((E)-(8-amino-1-hydroxy-5,7-disulfonicnaphthalen-2-yl)diazenyl)-3,3′-dimethyl-[1,1′-biphenyl]-4-yl)amino)-6-oxohexyl)-1H-1,2,3-triazol-4-yl)methoxy)-4-((((S)-4,11-diethyl-4-hydroxy-3,14-dioxy-3,4,12,14-tetrahydro-1H-pyrano[3′,4′:6,7]indolazino[1,2-b]quinolin-9-yl)oxy)methyl)2-methylphenoxy)-3,4,5-trihydroxytetrahydro-2H-pyran-2-carboxylate trisodium [Example 14]	–	2.4	–	–
(2S,3S,4S,5R,6S)-6-(3-((1-(6-((4′-((E)-(8-amino-1-hydroxy-5,7-disulfonicnaphthalen-2-yl)diazenyl)-3,3′-dimethyl-[1,1′-biphenyl]-4-yl)amino)-6-oxohexyl)-1H-1,2,3-triazol-4-yl)methoxy)-4-(((S)-4-ethyl-4-hydroxy-3,14-dioxy-3,4,12,14-tetrahydro-1H-pyrano[3′,4′:6,7]indolazino[1,2-b]quinolin-9-yl)oxy)methyl)phenoxy)-3,4,5-trihydroxytetrahydro-2H-pyran-2-carboxylate trisodium [Example 24]	–	–	–	Final body weight change (%) [4]: −0.6%
(2S,3S,4S,5R,6S)-6-(3-((1-(2-(2-(2-((4′-((E)-(8-amino-1-hydroxy-5,7-disulfonicnaphthalen-2-yl)diazenyl)-3,3′-dimethyl-[1,1′-biphenyl]-4-yl)amino)-2-oxoethoxy)ethoxy)ethyl)-1H-1,2,3-triazol-4-yl)methoxy)-4-(((S)-4,11-diethyl-4-hydroxy-3,14-dioxo-3,4,12,14-tetrahydro-1H-pyrano[3′,4′:6,7]indolazino[1,2-b]quinolin-9-yl)oxy)methyl)phe noxy)-3,4,5-trihydroxytetrahydro-2H-pyran-2-carboxylate trisodium [Example 54]	–	5.8	−12.5	–
(2S,3S,4S,5R,6S)-6-(3-((1-(2-((4′-((E)-(8-amino-1-hydroxy-5,7-disulfonicnaphthalen-2-yl)diazenyl)-3,3′-dimethyl-[1,1′-biphenyl]-4-yl)amino)-2-oxoethyl)-1H-1,2,3-triazol-4-yl)methoxy)-4-((((S)-4,11-diethyl-4-hydroxy-3,14-dioxy-3,4,12,14-tetrahydro-1H-pyrano[3′,4′:6,7]indolazino[1,2-b]quinolin-9-yl)oxy)methyl)phenoxy)-3,4,5-trihydroxytetrahydro-2H-pyran-2-carboxylate trisodium [Example 90]	–	–	−9.5	Final body weight change (%) [6]: 9.0%
(2S,3S,4S,5R,6S)-6-(3-((1-(2-(2-(2-((4′-((E)-(8-amino-1-hydroxy-5,7-disulfononaphthalen-2-yl)diazenyl)-3,3′-dimethoxy-[1,1′-biphenyl]-4-yl)amino)-2-oxoethoxy)ethoxy)ethyl)-1H-1,2,3-triazol-4-yl)methoxy)-4-(((S)-4,11-diethyl-4-hydroxy-3,14-dioxo-3,4,12,14-tetrahydro-1H-pyrano[3′,4′:6,7]indolazino[1,2-b]quinolin-9-yl)oxy)methyl)phenoxy)-3,4,5-trihydroxytetrahydro-2H-pyran-2-carboxylate trisodium [Example 61]	–	5.4	−4.9	–
(2S,3S,4S,5R,6S)-6-(3-((1-(8-((4′-((E)-(8-amino-1-hydroxy-5,7-disulfonicnaphthalen-2-yl)diazenyl)-3,3′-dimethyl-[1,1′-biphenyl]-4-yl)amino)-8-oxooctyl)-1H-1,2,3-triazol-4-yl)methoxy)-4-((((S)-4,11-diethyl-4-hydroxy-3,14-dioxy-3,4,12,14-tetrahydro-1H-pyrano[3′,4′:6,7]indolizino[1,2-b]quinolin-9-yl)oxy)methyl)phenoxy)-3,4,5-trihydroxytetrahydro-2H-pyran-2-carboxylate trisodium [Example 40]	8.5	–	–	–
